Results from US20250042882A1, “CERTAIN 3-AZABICYCLO[3.1.0]HEXANES AS GLP-1 RECEPTOR MODULATORS” (AstraZeneca AB, priority 2021, published 2025).

The chains behind the UniProt entries cited, without tags or fusion partners.
UniProt Q14432, whole entry: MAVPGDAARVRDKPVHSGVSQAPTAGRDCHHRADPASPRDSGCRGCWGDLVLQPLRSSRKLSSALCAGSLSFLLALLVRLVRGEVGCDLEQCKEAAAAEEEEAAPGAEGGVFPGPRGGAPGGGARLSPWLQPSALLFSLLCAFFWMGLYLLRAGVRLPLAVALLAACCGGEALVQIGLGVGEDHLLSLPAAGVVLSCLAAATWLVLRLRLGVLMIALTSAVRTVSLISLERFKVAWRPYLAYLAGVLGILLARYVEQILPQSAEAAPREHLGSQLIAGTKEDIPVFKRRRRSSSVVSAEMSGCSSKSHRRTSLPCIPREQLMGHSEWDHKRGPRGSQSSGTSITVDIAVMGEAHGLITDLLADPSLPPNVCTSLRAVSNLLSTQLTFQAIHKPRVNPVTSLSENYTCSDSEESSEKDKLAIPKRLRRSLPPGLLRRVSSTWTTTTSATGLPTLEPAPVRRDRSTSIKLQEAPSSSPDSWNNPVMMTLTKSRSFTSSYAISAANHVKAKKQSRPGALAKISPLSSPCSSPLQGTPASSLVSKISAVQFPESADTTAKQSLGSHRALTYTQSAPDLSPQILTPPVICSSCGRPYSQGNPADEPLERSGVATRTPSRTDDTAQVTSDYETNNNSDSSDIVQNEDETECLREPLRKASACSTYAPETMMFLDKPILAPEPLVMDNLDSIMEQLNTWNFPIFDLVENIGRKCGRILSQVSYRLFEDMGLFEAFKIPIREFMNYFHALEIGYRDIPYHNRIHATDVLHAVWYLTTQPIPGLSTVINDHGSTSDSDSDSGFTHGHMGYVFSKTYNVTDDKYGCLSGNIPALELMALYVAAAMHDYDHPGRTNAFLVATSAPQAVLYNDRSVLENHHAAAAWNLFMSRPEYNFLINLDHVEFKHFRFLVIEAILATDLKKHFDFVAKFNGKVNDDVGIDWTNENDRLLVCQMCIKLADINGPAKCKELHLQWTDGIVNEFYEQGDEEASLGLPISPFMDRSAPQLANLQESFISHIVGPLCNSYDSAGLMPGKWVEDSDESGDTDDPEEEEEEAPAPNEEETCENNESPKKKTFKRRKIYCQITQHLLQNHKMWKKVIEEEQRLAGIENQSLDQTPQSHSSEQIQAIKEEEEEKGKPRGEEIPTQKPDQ

Biological target: human phosphodiesterase-3A (Homo sapiens, UniProt Q14432)
Assay: PDE3 Assay
Conditions: read-out: PDE3 IC50; human recombinant enzyme expressed in Sf9 cells; formation of 5′AMP from cAMP, SPA
Procedure: Evaluation of the effects of compounds on the activity of the human phosphodiesterase-3A is quantified by measuring the formation of 5′AMP from cAMP using a human recombinant enzyme expressed in a clonal isolate of Spodoptera frugiperda cells (Sf9) cells.
The test compound, reference compound or water (control) are added to a buffer containing 40 mM tris(hydroxymethyl)aminomethane (Tris)/HCl (pH 7.4) and 8 mM MgCl2, 450 nMcAMP and 0.25 μCi [^3H]cAMP.
Thereafter, the reaction is initiated by addition of the enzyme (about 1 U) and the mixture is incubated for 20 min at 22° C.
For basal control measurements, the enzyme is omitted from the reaction mixture.
Following incubation SPA beads are added. After 30 min at 22° C. under shaking, the amount of [^3H]5′AMP is quantified with a scintillation counter (Topcount, Packard).
The results are expressed as a percent inhibition of the control enzyme activity. The standard inhibitory reference compound is milrinone (CAS number 78415-72-2), which is tested in each experiment at several concentrations to obtain an inhibition curve from which its IC50 value is calculated.

SMILES: Cc1cc(Cc2nc3ccc(C(=O)O)cc3n2C[C@@H]2CCO2)c(F)cc1-c1cccc(OCc2ccc(C#N)cc2F)n1
- IC50: 5 µM
